According to IntAct's records for PubMed 23460739:

B1: Mannose-binding protein C (Homo sapiens), P11226 (parent)
chain: MSLFPSLPLLLLSMVAASYSETVTCEDAQKTCPAVIACSSPGINGFPGKDGRDGTKGEKGEPGQGLRGLQGPPGKLGPPGNPGPSGSPGPKGQKGDPGKSPDGDSSLAASERKALQTEMARIKKWLTFSLGKQVGNKFFLTNGEIMTFEKVKALCVKFQASVATPRNAAENGAIQNLIKEEAFLGITDEKTEGQFVDLTGNRLTYTNWNEGEPNNAGSDEDCVLLLKNGQWNDVPCSTSHLAVCEFPI

Variants of: B1
Conditions: with cr1_human CR1, P17927

effect of a mutation on the interaction	Variant
disrupting interaction strength	MSLFPSLPLLLLSMVAASYSETVTCEDAQKTCPAVIACSSPGINGFPGKDGRDGTKGEKGEPGQGLRGLQGPPGELGPPGNPGPSGSPGPKGQKGDPGKSPDGDSSLAASERKALQTEMARIKKWLTFSLGKQVGNKFFLTNGEIMTFEKVKALCVKFQASVATPRNAAENGAIQNLIKEEAFLGITDEKTEGQFVDLTGNRLTYTNWNEGEPNNAGSDEDCVLLLKNGQWNDVPCSTSHLAVCEFPI [K75E]
disrupting interaction strength	MSLFPSLPLLLLSMVAASYSETVTCEDAQKTCPAVIACSSPGINGFPGKDGRDGTKGEKGEPGQGLRGLQGPPGALGPPGNPGPSGSPGPKGQKGDPGKSPDGDSSLAASERKALQTEMARIKKWLTFSLGKQVGNKFFLTNGEIMTFEKVKALCVKFQASVATPRNAAENGAIQNLIKEEAFLGITDEKTEGQFVDLTGNRLTYTNWNEGEPNNAGSDEDCVLLLKNGQWNDVPCSTSHLAVCEFPI [K75A]
